## Measured affinities in a library of Ab-14 heavy chain variants

Source: Li et al. 2023 (doi:10.1038/s41467-023-39022-2), MIT Lincoln Laboratory and A-Alpha Bio; data file from the FLAb repository.

Antigen: PDVDLGDISGINAS, a 14-residue peptide of the SARS-CoV-2 spike HR2 region.

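Phage display of a naive human antibody library on the peptide gave the parent. This is the validation round: designs drawn from the data on random variants, tested in the same kind of assay. Group labels follow the data file (Ctrl: baseline library sampled from a position-specific scoring matrix, with some repeated check sequences; En: ensemble of fine-tuned language models; GP: Gaussian process model; GPLM: also part of the Gaussian process libraries; HC: hill climbing; Gen: genetic algorithm; Gibbs: Gibbs sampling; a sequence that several methods proposed may carry one label only). The assay is AlphaSeq: two haploid yeast populations carry antibody and antigen on their surface. After mating in shaken culture at 30 °C for 16 h, diploids were selected and their barcode pairs sequenced. The ratio of observed to expected reads was calibrated, replicate by replicate, on BCL2-family standards whose Kd was known from biolayer interferometry. Each pool was mated in six replicate cultures.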

The variants keep the light chain, the linker and the frameworks of Ab-14 (scFv order VH, a 15-residue (Gly4Ser)3 linker, VL).
VH: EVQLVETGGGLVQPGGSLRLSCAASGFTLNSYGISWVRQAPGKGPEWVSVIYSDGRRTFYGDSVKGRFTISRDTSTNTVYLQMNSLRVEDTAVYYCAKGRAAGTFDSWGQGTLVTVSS
VL: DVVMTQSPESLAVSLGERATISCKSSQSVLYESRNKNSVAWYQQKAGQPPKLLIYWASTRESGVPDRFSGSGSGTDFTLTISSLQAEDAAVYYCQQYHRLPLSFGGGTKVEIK

Variants are written as CDR1, CDR2 and CDR3 of the heavy chain (limits as in the source). Parent: GFTLNSYGIS, VIYSDGRRTFYGDSVK, GRAAGTFDS. Each Kd is an estimate from the mating assay, the geometric mean of the replicates in which the pair was seen; lower is stronger. "nd" means that the variant was in the library but no mating with the target was seen in any replicate; the authors take this as a sign of poor binding, and no number exists. A sequence measured in both rounds can read differently, since the two assays cover different ranges.

Variant GFTLNSYGIS | VIYFDGKRTFYGDSVK | GRAAGTFDD [Ctrl] gave nd (0 of 6 replicates).
Variant GFQINSYGIS | VIYSDGRRTFYGDSVA | GRAAGTFDS [Ctrl] gave 3.0 nM (6 of 6 replicates).
Variant GFTLNNYGIS | VIYSDGKRTFYSDSVK | GKAAGTFDS [GP_HC] gave 290 pM (6 of 6 replicates).
Variant GFDLDEYGIS | VIYADGMRTAYVDSVK | GEVAGTFDV [En_Gen] gave 170 pM (6 of 6 replicates).
Variant GFHLDEYGIS | VIYADGKRVVYTNDVK | GELEGGFVI [En_Gibbs] gave nd (0 of 6 replicates).
Variant GFDLEEYGIS | VIYADGRRTYAVDAVK | GHADDLGLV [En_Gibbs] gave 5.5 µM (1 of 6 replicates).
Variant GFDLNEYGIS | VIYADGRRTFYADSVK | GENAGFFDV [En_HC] gave 64 nM (2 of 6 replicates).
Variant GFDIEEYGIS | VIYADGQRTMYTPNVK | GNITGLVDI [En_Gibbs] gave nd (0 of 6 replicates).
Variant GFTLNSYGIS | VIYSDGRRTFYSDSVK | GFAAGGFDS [Ctrl] gave nd (0 of 6 replicates).
Variant GFTLNSYGIS | VIYSDGRRTFYSDSVK | GKAAGTFDS [GPLM_Gen] gave 11 nM (5 of 6 replicates).
Variant GFTLNSYGIS | VIYSDGRRTFYADSVK | GHVAGTFDS [GPLM_Gen] gave 5.6 nM (6 of 6 replicates).
Variant GFDLNEYGIS | VIYADGVRTAYTDSVK | GEAAGTFDL [En_HC] gave 650 pM (6 of 6 replicates).
Variant GFDVEEYGIS | VIYADGRRSQYANSVK | GAIGGTFDM [En_Gibbs] gave 1.4 nM (6 of 6 replicates).
Variant GFDLNEYGIS | VIYADGVRTAYADSVK | GQNAGTFDL [En_Gen] gave 340 pM (6 of 6 replicates).
Variant GFDIDEYGIS | VIYADGMRQALINAVK | GTLSGTFIA [En_Gibbs] gave 1.5 nM (6 of 6 replicates).
Variant GFTLNDYGIS | VIYSDGRRKFYGDSVK | GRAAGTFDS [Ctrl] gave 6.0 nM (6 of 6 replicates).
Variant GFTLNSYGIS | VIYSDGRRTFYGDSCK | GRAAGINDS [Ctrl] gave nd (0 of 6 replicates).
Variant GFTLNSYGIS | VIYSDGRRTAYGDSVK | GRAAGCFDS [Ctrl] gave 260 nM (2 of 6 replicates).
Variant GFNLNEYGIS | VIYADGRRTFYADNVK | GNVAGTFDQ [En_HC] gave 370 pM (6 of 6 replicates).
Variant GFDLNSYGIS | VIYADGRRTFYGDSVK | GTAAGTFDS [GP_HC] gave nd (0 of 6 replicates).
Variant MFDLNSYGIS | VIYSDGRRTFYGDSVK | GQIAGTFDS [GP_Gibbs] gave 970 pM (6 of 6 replicates).
Variant RFTLNSYGIS | VIYSDGRRTAYSDSVK | LRAAGQFDS [Ctrl] gave nd (0 of 6 replicates).
Variant GTTVLSYGIS | VIYSDGRRTFYIDKVK | GQAAGTFDV [Ctrl] gave nd (0 of 6 replicates).
Variant GFDLNSYGIS | VIYSDGRRTAYGDSVK | GNAAGTFDS [GPLM_HC] gave 4.0 nM (6 of 6 replicates).
Variant GFDLDEYGIS | VIYADGQRTAYADSVK | GEVAGTFDA [En_Gen] gave 470 pM (6 of 6 replicates).
Variant GFTLNSYGIS | VIYSDGRRTFYQDDVK | GRAAGTFDS [Ctrl] gave 76 nM (1 of 6 replicates).
Variant GFDLNEYGIS | VIYADGQRTAYADDVK | GANAGTFDV [En_Gen] gave 410 pM (6 of 6 replicates).
Variant GKSLNSYGIS | VIYSDGRRTFYGDEVK | GRTAGTFDS [GP_Gibbs] gave 530 nM (1 of 6 replicates).
Variant GFELNSYGIS | VIYSDGRRTFYQDSVK | GQAAGTFDS [GPLM_Gen] gave 550 nM (2 of 6 replicates).
Variant GKALDEYGIS | VIYADGKRTFYSNTVK | GQDGFFYDQ [En_Gibbs] gave 1.9 µM (2 of 6 replicates).
Variant GFDLNEYGIS | VIYADGHRSFFIDTVK | GQQAGIFNV [En_Gibbs] gave nd (0 of 6 replicates).
Variant GFTLNDYGIS | VIYSDGRRTFYIDSVK | GRAVGTFDS [GP_HC] gave nd (0 of 6 replicates).
Variant GFDIEEYGIS | VIYADGQRVSYIDSFK | GQNNVIGMY [En_Gibbs] gave nd (0 of 6 replicates).
Variant GFSLNEYGIS | VIYSDGRRTFYGDSVK | GQTAGTFDS [GPLM_Gen] gave 420 pM (6 of 6 replicates).
Variant GFDLNEYGIS | VIYADGRRTFYTDSVK | GEHAGTFDV [En_HC] gave 350 pM (6 of 6 replicates).
Variant GFDLNEYGIS | VIYADGLRTQYIDSVK | GEAAGTFDL [En_HC] gave 1.8 nM (6 of 6 replicates).
Variant GFDLNEYGIS | VIYADGVRTFYADSVK | GQNAGTFDQ [En_HC] gave 390 pM (6 of 6 replicates).
Variant GFDLNEYGIS | VIYADGIRTAYADSVK | GNVAGTFDI [En_Gen] gave 220 pM (6 of 6 replicates).
Variant GFHLNSYGIS | VIYSDGRRTFYVDSVK | GEAAGTFDT [GP_Gibbs] gave 9.4 nM (3 of 6 replicates).
Variant GFHLNSYGIS | VIYSDGRRTFYTDSVK | GQTAGTFDS [GP_Gen] gave 3.7 nM (3 of 6 replicates).
Variant GFSLNSYGIS | VIYSDGRRTFYGDSVK | GVIAGTFDS [GP_Gen] gave 940 pM (6 of 6 replicates).
Variant GFELNSYGIS | VIYSDGRRTFYGDSVK | GWMAGTFDS [GP_Gen] gave nd (0 of 6 replicates).
Variant GFDLNEYGIS | VIYADGRRTFYADSVK | GNQAGTFIQ [En_HC] gave 13 nM (6 of 6 replicates).

The opening 6 entries, copied out:

{"CDR-H1": "GFTLNSYGIS", "CDR-H2": "VIYFDGKRTFYGDSVK", "CDR-H3": "GRAAGTFDD", "group": "Ctrl", "Kd (apparent)": "nd", "replicates with signal": "0/6"}
{"CDR-H1": "GFQINSYGIS", "CDR-H2": "VIYSDGRRTFYGDSVA", "CDR-H3": "GRAAGTFDS", "group": "Ctrl", "Kd (apparent)": "3.0 nM", "replicates with signal": "6/6"}
{"CDR-H1": "GFTLNNYGIS", "CDR-H2": "VIYSDGKRTFYSDSVK", "CDR-H3": "GKAAGTFDS", "group": "GP_HC", "Kd (apparent)": "290 pM", "replicates with signal": "6/6"}
{"CDR-H1": "GFDLDEYGIS", "CDR-H2": "VIYADGMRTAYVDSVK", "CDR-H3": "GEVAGTFDV", "group": "En_Gen", "Kd (apparent)": "170 pM", "replicates with signal": "6/6"}
{"CDR-H1": "GFHLDEYGIS", "CDR-H2": "VIYADGKRVVYTNDVK", "CDR-H3": "GELEGGFVI", "group": "En_Gibbs", "Kd (apparent)": "nd", "replicates with signal": "0/6"}
{"CDR-H1": "GFDLEEYGIS", "CDR-H2": "VIYADGRRTYAVDAVK", "CDR-H3": "GHADDLGLV", "group": "En_Gibbs", "Kd (apparent)": "5.5 µM", "replicates with signal": "1/6"}

In the paper, a design with two or fewer of six values counts as a poor binder. Background: pairings of all heavy chain designs with three empty control strains gave a value in 1% of cases (median 120 nM, 5th percentile 7.0 nM). Values in that range, when seen in few replicates, are hard to tell from nonspecific mating. The parent sequence was in this pool as ten entries: three were never detected, three once, and four in most replicates, with averages from 2.2 nM to 240 nM.